This passage reports Km results from PMC5467207, “Single-peptide DNA-dependent RNA polymerase homologous to multi-subunit RNA polymerase” (Nature Communications, 2017).

This data set has as its system Nc1ncnc2c1ncn2[C@@H]1O[C@H](COP(=O)(O)OP(=O)(O)OP(=O)(O)O)[C@@H](O)[C@H]1O. Nature of the data set: purified protein. To be noted: 10 °C, assembled elongation complex (template DNA, RNA primer), 20 mM Tris-HCl pH 8.5, 40 mM KCl, 10 mM MgCl2.

“E. coli core msRNAP (Escherichia coli K-12)”: the Km was 0.6 ± 0.2 µM.

Usually Km stands for the substrate concentration at which the rate is half of its maximum.
